Data set [1] can be described thus: Solubility of hesperidin in solutions of different pH. The following applies: alkaline solution (composition #18, 0.05 M sodium carbonate, pH 11). The format is physicochemical.
For data set [2] the following is noted: cited from earlier work.

Solubility of hesperidin data for 1 substance are collected here from patent US8507452B2, “Hesperidin-containing composition” (Sunstar Inc., priority 2009, dated 2013).

Where two headings read alike, the source gives them in different places.

As to hesperidin, the figures for the solubility of hesperidin result in data set [1], in data set [2] (neutral to acidic solutions) and in data set [2] (strong alkali solutions having a pH of 11 or more) were “easily dissolved”, “barely dissolves” and “dissolves”, respectively.
